Data published in patent US10766902B2.
pEC50: −log10 of the molar value. Like-named read-outs stand apart in the source and are kept apart here.

Chains of the proteins cited; added tags and fusions are not shown.
UniProt P30291, whole entry: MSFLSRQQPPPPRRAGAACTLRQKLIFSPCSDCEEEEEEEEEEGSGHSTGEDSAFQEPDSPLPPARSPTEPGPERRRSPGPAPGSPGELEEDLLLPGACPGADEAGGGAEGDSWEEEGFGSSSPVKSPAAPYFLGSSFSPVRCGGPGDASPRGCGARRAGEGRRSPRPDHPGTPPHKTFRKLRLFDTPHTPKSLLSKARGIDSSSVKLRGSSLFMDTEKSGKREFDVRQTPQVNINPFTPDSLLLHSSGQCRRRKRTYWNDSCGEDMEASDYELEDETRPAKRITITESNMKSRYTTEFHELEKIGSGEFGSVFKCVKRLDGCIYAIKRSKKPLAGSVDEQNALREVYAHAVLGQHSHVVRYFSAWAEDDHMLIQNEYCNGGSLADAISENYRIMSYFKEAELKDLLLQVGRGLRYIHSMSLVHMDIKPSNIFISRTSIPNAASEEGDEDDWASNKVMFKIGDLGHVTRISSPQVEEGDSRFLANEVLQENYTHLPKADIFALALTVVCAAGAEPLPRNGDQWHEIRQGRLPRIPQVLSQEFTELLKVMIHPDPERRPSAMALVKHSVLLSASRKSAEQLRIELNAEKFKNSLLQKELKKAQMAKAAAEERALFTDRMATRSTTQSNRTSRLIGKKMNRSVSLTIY

What was measured:
Wee-1 = Wee-1 (Homo sapiens (Human), UniProt P30291); settings: read-out: Wee-1/nM; Table 7; reference ACS Chem Biol 2016, 11, 921; cited from earlier work
phosphorylation of CDC2 = settings: read-out: ELISA/nM; Table 5; reference US 2007/0254892; cited from earlier work
[1] = system: phosphorylation of Cdc2 at Tyr15; test: ELISA for phosphorylation of Cdc2 at Tyr15 in HT-29 / HCT-116 cells; assay type: cell-based, human
A498 cells = test: Cell viability (CellTiter-Glo), A498; assay type: cell-based; settings: read-out: A498 EC50; cell viability after 6 days
SK-LU-1 cells = test: Cell viability (CellTiter-Glo), SK-LU-1; assay type: cell-based; settings: read-out: SK-LU-1 EC50; cell viability after 6 days

Compound | IC50 (Wee-1) | EC50 (phosphorylation of CDC2) | pEC50 ([1]; read-out: ELISA p-CDC2 EC50, Table 3) | EC50 ([1]; read-out: ELISA/nM, Table 5, data obtained as described in the experimental section of the current invention) | pEC50 (A498 cells) | pEC50 (SK-LU-1 cells)
C=CCn1c(=O)c2cnc(Nc3ccc(N4CCOCC4)cc3)nc2n1-c1cccc(C(C)(C)O)n1 | 37.8 nM | – | – | – | – | –
C=CCn1c(=O)c2cnc(Nc3ccc(N(C)C)cc3)nc2n1-c1cccc(C(C)(C)O)n1 | 42.8 nM | – | – | – | – | –
C=CCn1c(=O)c2cnc(Nc3ccc(N4CCN(C)CC4)cc3)nc2n1-c1cccc(C(C)(C)O)n1 | – | 68 nM | 7.18 | 67 nM | 6.99 | 7.40
